Patent US20260226036A1, “THIOUREA ANTIO[…] NEURO[…]” (priority 2023, published 2026)
Entries after “also recorded” stand apart in the source; their conditions may differ.

Tests used:
methionine synthase (MS) = assay: Intracellular methionine synthase ELISA of SH-SY5Y cell lysate; format: cell-based, human; conditions: for MS activity compared to TBHP treated cells: TBHP 65 μM, compound 100 μM, FIG. 6A
Procedure: Cells were treated with either TBHP (65 μM), cocaine (1.5 mM) or METH (3.35 mM) followed by co-treatment with SA-30 and SA-31 (100 μM) for 24 hours. Cell lysates were collected and quantified with Pierce™ BCA Protein Assay. Level of intracellular methionine synthase (MS) were assessed using ELISA of the cell lysate.

[1] = test system: mouse hippocampal neural HT22 cells; assay: Neuroprotection MTT assay in HT22 cells; format: cell-based; conditions: FIG. 5A, N=3
Procedure: (§1) Neuroprotection activities: Either mouse hippocampal neural HT22 cells or human neuroblastoma SHSY5Y cells were cultured, seeded in 96-well plates and treated with either TBHP or cocaine or METH followed by addition of SA-30 or SA-31 at different concentrations and incubated for 24 h. MTT assay was used for measuring viable cells at absorbance of 490 nm. […] The result was compared with two known anti-oxidant compounds dimethyl thiourea (DMTU) and 4-hydoxy tempol (4-H-tempol). […] (FIGS. 5C-5D).

[2] = test system: human neuroblastoma SHSY5Y cells; assay: Neuroprotection MTT assay in SHSY5Y cells; format: cell-based; conditions: for number of viable cells compared to either DMTU or 4-H-tempol: 24 h; for protection from TBHP, cocaine and methamphetamine induced oxidative stress and cell death: SHSY5Y cells, FIGS. 5B-5C, N=3
Procedure: as §1

catalase (CAT) = assay: Catalase ELISA in SH-SY5Y cells; format: cell-based, human; conditions: cocaine 1.5 mM + SA-31 co treatment; 24 hours
Procedure: (§2) Cells were treated with either cocaine (1.5 mM) or METH (3.35 mM) followed by co-treatment with SA-31 for 24 hours. Cell lysates were collected and quantified with Pierce™ BCA Protein Assay. Level of intracellular SOD, catalase, glutathione peroxidase and total antioxidant concentration were assessed using ELISA kits.

IL-1β cytokine = IL-1β cytokine ELISA of SHSY-5Y supernatants; format: cell-based, human
Procedure: Briefly, SHSY-5Y cells were cultured, seeded in 96-well plates, and treated with either cocaine (1.5 mM) or MEH (3.5 mM) subsequently followed by co-treatment with SA-31 at different concentrations (10 μM, 100 μM), and incubated for 24 h. Supernatants were collected and the IL-1β cytokine concentration was assessed using ELISA kit and following manufacturer instruction (RayBiotech). […] N=3, p<0.05; p<0.01, One-way ANOVA, GraphPad Prism.

SH-SY5Y cells = assay: Mitochondrial bioenergetics, Seahorse XFe24 (OCR, ECAR); format: cell-based, human; conditions: vs untreated control; 24 h; 1, 10, 100 μM tested
Procedure: In a separate experiment, 60,000 cells/well of SH-SY5Y cells were seeded in a 24 well plate and treated for 24 h with SA-31 (1 μM, 10 μM, and 100 μM). After 24 h, the mitochondrial complex inhibitors and uncoupling reagents (oligomycin, FCCP, rotenone/antimycin A) were added and the plate was analyzed for changes in oxygen consumption rate (OCR) and extracellular acidification rate (ECAR) using the Seahorse XFe24 analyzer following the manufacturer's instructions.

[3] = test system: glutathione peroxidase (GPx); assay: Glutathione peroxidase ELISA in SH-SY5Y cells; format: cell-based, human; conditions: cocaine 1.5 mM + SA-31 co treatment; 24 hours
Procedure: as §2

[4] = Brain bioavailability after single intraperitoneal injection, HPLC/LC/MS; format: in vivo, mouse
Procedure: The bioavailability of compound SA-31 was evaluated in adult, aged mouse (8 months old) and quantified the concentration of drug at different time points after single intraperitoneal injection. The goal was to understand whether the compound has ability to cross blood brain barrier and reach to the different region of the brain tissue systemically. Total 16 mice were used for this experiment. A single dose of SA-31 formulated in PBS was dosed intraperitoneally (10 mg/kg) to the C57Bl/6 J mice (n=4 per group, 8 months old, M+F) and were sacrificed at four different time points (0.5 h, 1 h, 4 h, and 8 h). The brain was dissected into 6 different regions (cortex, midbrain, hippocampus, cerebellum, striatum and hindbrain) and the samples were stored at −80° C. for further processing and HPLC analysis. An HPLC/LC/MS method was developed in house to quantify the concentration of SA-31 in the plasma and brain samples using Waters Atlantis HILIC Silica 3 μm, 3.0×50 mm in Agilent 1260 infinity HPLC coupled with 6460 triple Quad LC/MS. Water containing 0.1% formic acid was used as mobile phase A and acetonitrile containing 0.1% formic acid was used as mobile phase B to detect the compound and internal standard. The tissue samples were extracted, concentrated using SpeedVac and reconstituted with 50:50 isopropyl and water. The samples were filtered through 0.45-micron syringe filter and 50 μL of the sample was injected in the HLPC machine. Method validation was performed with ten serially diluted concentrations of SA-31 to generate a standard curve with >100% accuracy. The lower quantification detection range was set to be 1 ng/ml

SH-SY5Y neural cells = assay: Total antioxidant concentration in SH-SY5Y cells; format: cell-based, human; conditions: FIG. 7E
Procedure: as §2

SW mice = assay: Cocaine-conditioned locomotion, expression test; format: in vivo, mouse; conditions: for expression of increased (cocaine-conditioned) locomotor activity: Paired mice, cocaine 15 mg/kg 24 h earlier
Procedure: SA-31 blocks cocaine-conditioned locomotion. The goal of this pilot study was to determine if the novel small molecule was effective in preventing cocaine-conditioned motor activity of SW mice. […] Cocaine results in enhanced locomotor activity in mice. Mice that were previously injected with 15 mg/kg cocaine, either in their home cages (Unpaired) or in the novel test environment (Paired), were tested 24 h later. Mice were either administered vehicle [Unpaired-vehicle or Paired-vehicle] or dimethyl thiourea (DMTU), a known hydroxyl radical scavenger or compound SA-31 prior to testing [Paired-1 mg/kg, 3 mg/kg, 5 mg/kg or 10 mg/kg]. […] It is yet to be determined if a high dose of SA-31 has leea to inactivation of MS in vivo by pharmacokinetic studies.

SOD = assay: Intracellular SOD ELISA in SH-SY5Y cells; format: cell-based, human; conditions: 24 h
Procedure: as §2

[5] = cocaine induced cell death model

CC1(C)CC(NC(=S)NC2CCSCC2)CC(C)(C)N1[O] [SA-30, 1-(tetrahydro-2H-thiopyran-4-yl)-3-(2,2,6,6-tetramethyl-1-(11-oxidaneyl)piperidin-4-yl)thiourea]
MS activity compared to TBHP treated cells (methionine synthase (MS); 24 hours): significant increase | protection from TBHP, cocaine and methamphetamine induced oxidative stress and cell death [1]: protects neural cells | number of viable cells compared to either DMTU or 4-H-tempol ([2]; METH induced cell death model): increased the number of viable cells | protection from TBHP, cocaine and methamphetamine induced oxidative stress and cell death [2]: protects neural cells | number of viable cells compared to either DMTU or 4-H-tempol [2, 5]: increased the number of viable cells

CC1(C)CC(NC(=S)NC2CCS(=O)(=O)CC2)CC(C)(C)N1[O] [SA-31, 1-(1,1-dioxidotetrahydro-2H-thiopyran-4-yl)-3-(2,2,6,6-tetramethyl-1-(11-oxidaneyl)piperidin-4-yl)thiourea]
CAT activity (catalase (CAT)): significantly increased | IL-1β (IL-1β cytokine; METH 3.5 mM + SA-31, 24 h): trend in decrease | cocaine induced increase in IL-1β (IL-1β cytokine; cocaine 1.5 mM + SA-31 (10 M as printed), 24 h): significantly decreased | inflammatory cytokine IL-1β (IL-1β cytokine; human SH-SY5Y neural cells, FIGS. 8A-B): decreases | glycolytic activity (SH-SY5Y cells): increases | mitochondrial respiration (SH-SY5Y cells): increases | intracellular MS activity vs METH treated cells (methionine synthase (MS); METH 3.35 mM + 100 μM, 24 hours, FIG. 6C): significant increase | MS activity compared to TBHP treated cells (methionine synthase (MS); 24 hours): significant increase | MS enzyme (methionine synthase (MS); TBHP experiment, 1000 μM): significant increase | effect on MS (methionine synthase (MS); cocaine 1.5 mM + SA-31 100 μM, 24 hours, FIG. 6B): no significant effect | GPx activity [3]: significantly retrieved; also recorded: significantly increased; also recorded: No significant changes | protection from TBHP, cocaine and methamphetamine induced oxidative stress and cell death [1]: protects neural cells | time of peak concentration, cortex ([4]; 10 mg/kg intraperitoneal, FIG. 10A): 8 h | time of peak concentration, midbrain ([4]; 10 mg/kg intraperitoneal, FIG. 10B): 8 h | time of peak concentration, hippocampus ([4]; 10 mg/kg intraperitoneal, FIG. 10C): 8 h | time of peak concentration, cerebellum ([4]; 10 mg/kg intraperitoneal, FIG. 10D): 30 min | time of peak concentration, striatum ([4]; 10 mg/kg intraperitoneal, FIG. 10E): 4 h | time of peak concentration, hindbrain ([4]; 10 mg/kg intraperitoneal, FIG. 10F): 1 h | bioavailability in mouse brain ([4]; after systemic dosing): bioavailable | overall antioxidant concentration (SH-SY5Y neural cells; SA-31 in combination with cocaine): increased | overall antioxidant concentration (SH-SY5Y neural cells; only SA-31): increased | expression of increased (cocaine-conditioned) locomotor activity (SW mice; 1 mg/kg prior to testing): significantly inhibited | expression of increased (cocaine-conditioned) locomotor activity (SW mice; 3 mg/kg prior to testing): significantly inhibited | potency relative to DMTU (SW mice; cocaine-conditioned locomotion, effective doses compared): more potent than DMTU | SOD activity vs METH treated cells (SOD; METH 3.35 mM + SA-31 100 μM): significant increase; also recorded: increased | SOD activity vs cocaine treated cells (SOD; cocaine 1.5 mM + SA-31 100 μM): significant increase; also recorded: increased | number of viable cells compared to either DMTU or 4-H-tempol ([2]; METH induced cell death model): increased the number of viable cells | protection from TBHP, cocaine and methamphetamine induced oxidative stress and cell death [2]: protects neural cells | number of viable cells compared to either DMTU or 4-H-tempol [2, 5]: increased the number of viable cells
